Measurements reported in article PMC8292411 (British Journal of Cancer, 2021).
Structures can show the parent of a compound that is named as a salt.

Assays:
[1] = test system: Asian patients with advanced HCC; assay: Phase 1b dose escalation: DLTs and adverse events
[2] = test system: advanced HCC; assay: Phase 1b tumour response per RECIST v1.1; assay type: in vivo, human
Procedure: In Phase 2, the primary endpoint was independent review committee (IRC)-assessed time to progression (TTP) per Response Evaluation Criteria in Solid Tumors (RECIST) v1.1. Secondary endpoints included investigator-assessed TTP, IRC- and investigator-assessed progression-free survival (PFS), objective response rate (ORR), disease control rate, OS and safety. In both phases, tumour assessments were performed according to RECIST v1.1 based on scans taken at the end of every second cycle until Cycle 13, and every four cycles thereafter.

What does the source list for CN1CCC(COc2cnc(-c3cccc(Cn4nc(-c5cccc(C#N)c5)ccc4=O)c3)nc2)CC1 [Tepotinib, tepotinib hydrochloride hydrate]?
patients with Grade ≥3 AEs of any cause [1]: 55.6%; disease control rate ([2]; Phase 1b, 500 mg cohort): 50%; disease control rate ([2]; Phase 1b, 1,000 mg cohort): 50%
